Laboratory results taken from patent US9701669B2, “Preparation and use of 7a-amide substituted- 6,6-difluoro bicyclic himbacine derivatives as PAR-1 receptor antagonists” (Merck Sharp & Dohme Corp., priority 2013, dated 2017).
Where two headings read alike, the source gives them in different places.

Chains of the proteins cited; added tags and fusions are not shown. Residues count along the entry.
UniProt P25116, 22-425: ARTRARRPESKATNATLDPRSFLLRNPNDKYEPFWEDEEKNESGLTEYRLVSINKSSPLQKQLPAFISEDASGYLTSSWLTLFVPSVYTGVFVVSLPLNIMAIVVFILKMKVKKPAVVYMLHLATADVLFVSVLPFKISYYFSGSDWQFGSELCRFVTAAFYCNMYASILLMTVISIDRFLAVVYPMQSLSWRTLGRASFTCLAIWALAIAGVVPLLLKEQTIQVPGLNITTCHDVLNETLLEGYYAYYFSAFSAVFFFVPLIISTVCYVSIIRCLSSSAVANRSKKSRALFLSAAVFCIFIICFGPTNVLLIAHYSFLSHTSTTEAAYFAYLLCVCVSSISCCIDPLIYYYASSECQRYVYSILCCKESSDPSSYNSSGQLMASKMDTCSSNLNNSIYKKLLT

Molecular target: PAR-1 receptor (Homo sapiens (Human), UniProt P25116)
Test: PAR-1 FLIPR Assay
Type: cell-based
Procedure: This assay measures the potency of the inventive compounds as PAR-1 receptor antagonists.
Frozen HEK 293 Cells were plated in 384-well PDL coated plates at 12000 cells/well in 50 uL of DMEM media containing 10% FBS, pen/strep/L-Glutamine and non-essential amino acids, incubated overnight at 37° C./5% CO2. Media was then removed from the cells, incubated with 33 ul of Calcium-5 dye in assay buffer (Hank's buffer containing 20 mM HEPES, 0.04% Chaps and 2.5 mM Probenecid) for 60 minutes at 37° C. 2 uL of varying concentrations of compound in 40% DMSO in assay buffer (final DMSO concentration is 2.3%) were then added to the cells and incubated at 25° C. for 30 minutes. […] The range of peptide was from 1.5-3 μM. The final volume was 40 uL/well, with 2% DMSO. […] The data were analyzed by taking the peak signal over a portion of the range of the 60 scans and dividing this signal by the minimum signal for that same range.

[1] = HEK 293 cells, calcium signal after PAR-1 selective receptor-activating peptide at 80% activation

In the case of `CC(C(N)=O)[C@@]12CC(F)(F)[C@@H](C)[C@H](/C=C/c3ccc(-c4ccccc4C#N)cn3)[C@@H]1[C@@H](C)OC2=O` (single isomer, unassigned) [Example 8, (R or S)-2-((1R,3aR,6S, 7R,7aS)-7-((E)-2-(5-(2-cyanophenyl)pyridin-2-yl)vinyl)-5,5-difluoro-1,6-dimethyl-3-oxooctahydro-isobenzofuran-3a-yl)propanamide], the IC50 [1] is reported as 4.07 nM.
Work on `CC(C(N)=O)[C@@]12CC(F)(F)[C@@H](C)[C@H](/C=C/c3ccc(-c4ccccc4C#N)cn3)[C@@H]1[C@@H](C)OC2=O` (single isomer, unassigned) [Example 9, (S or R)-2-((1R,3aR,6S, 7R,7aS)-7-((E)-2-(5-(2-cyanophenyl)pyridin-2-yl)vinyl)-5,5-difluoro-1,6-dimethyl-3-oxooctahydro-isobenzofuran-3a-yl)propanamide] yielded an IC50 [1] of 11.3 nM.
`CC(C(N)=O)[C@@]12CC(F)(F)[C@@H](C)[C@H](/C=C/c3ccc(-c4ccccc4C#N)cn3)[C@@H]1[C@@H](C)OC2=O` (stereo partly drawn) [Example 7, 2-((1R,3aR, 6S,7R,7aS)-7-((E)-2-(5-(2-cyanophenyl)pyridin-2-yl)vinyl)-5,5-difluoro-1,6-dimethyl-3-oxooctahydro-isobenzofuran-3a-yl)propanamide] gave an IC50 of 4.43 nM.
